Source: patent US20100016401A1, “3-AZA-BICYCLO[3.1.0]HEXANE DERIVATIVES” (Actelion Phamaceuticals Ltd., priority 2006, published 2010)

Amino acid sequences for entries named in this document (tags omitted).
UniProt O43613, whole entry: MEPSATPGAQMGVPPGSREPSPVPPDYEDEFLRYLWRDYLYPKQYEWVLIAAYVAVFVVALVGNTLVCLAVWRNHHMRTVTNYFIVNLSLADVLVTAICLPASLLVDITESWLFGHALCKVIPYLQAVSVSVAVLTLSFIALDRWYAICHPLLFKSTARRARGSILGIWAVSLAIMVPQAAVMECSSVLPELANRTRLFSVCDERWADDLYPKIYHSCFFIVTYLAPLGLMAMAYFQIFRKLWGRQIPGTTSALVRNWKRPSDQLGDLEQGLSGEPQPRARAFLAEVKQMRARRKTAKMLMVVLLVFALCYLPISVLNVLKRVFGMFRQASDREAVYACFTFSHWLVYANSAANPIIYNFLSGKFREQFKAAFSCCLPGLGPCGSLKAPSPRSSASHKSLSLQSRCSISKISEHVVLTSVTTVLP
UniProt O43614, whole entry: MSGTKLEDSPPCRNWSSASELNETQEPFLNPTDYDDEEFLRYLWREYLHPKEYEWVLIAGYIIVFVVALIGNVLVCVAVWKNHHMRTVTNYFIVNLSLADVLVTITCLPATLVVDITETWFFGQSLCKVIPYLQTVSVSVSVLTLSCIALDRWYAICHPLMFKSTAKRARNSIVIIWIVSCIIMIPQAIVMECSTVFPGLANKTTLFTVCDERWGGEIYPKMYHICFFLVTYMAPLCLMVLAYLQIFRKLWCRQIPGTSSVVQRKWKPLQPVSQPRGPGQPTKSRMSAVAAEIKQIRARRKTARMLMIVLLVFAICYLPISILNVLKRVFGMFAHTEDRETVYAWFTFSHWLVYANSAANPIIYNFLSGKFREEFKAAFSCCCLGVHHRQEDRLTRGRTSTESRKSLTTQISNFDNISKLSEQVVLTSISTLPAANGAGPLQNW

How the values were obtained:
human orexin-1 receptor = human orexin-1 receptor (Homo sapiens, UniProt O43613); test: Intracellular calcium measurements (FLIPR), orexin receptor antagonistic activity, OX1; settings: read-out: OX1 IC50, CHO cells expressing human orexin-1 receptor, 10 nM orexin-A as agonist
human orexin-2 receptor = human orexin-2 receptor (Homo sapiens, UniProt O43614); test: Intracellular calcium measurements (FLIPR), orexin receptor antagonistic activity, OX2; settings: read-out: OX2 IC50, CHO cells expressing human orexin-2 receptor, 10 nM orexin-A as agonist

- IC50 (human orexin-1 receptor): 22 nM
- IC50 (human orexin-2 receptor): 12 nM
SMILES: Cc1nc(C(=O)N2C[C@H]3C[C@H]3[C@H]2CNC(=O)c2cccc3occc23)c(-c2cccc(F)c2)s1
